First the molecules themselves.
B1: hsa-mir-550a-2 (structured_RNA)
RNA: GGGAAUUGAUGCUGGACGACGUACUCAAGGUGUACGAAGUUUCAGCAGCCCUGUUGUUGUCAGAUAGUGUGCUGAAGCUUCGUGCAC
B2: hsa-mir-555 (structured_RNA)
RNA: GGGACGAGUGCAAAUGUGGCAUUAUCGAGGUGUACGAAGUUUCAGCCCUUUGUGAGCAGUGUGACCCAAGGCCUGUGGACAGGGGCUGAAGCUUCGUGCAC
B3: hsa-mir-6738 (structured_RNA)
RNA: GGGAGUGAUGGAAUGAAUGCGAACCGCAGGUGUACGAAGUUUCAGCCAGGGGUUCUGAUAAACCCUUCGCUGAAGCUUCGUGCAC
B4: hsa-mir-4717 (structured_RNA)
RNA: GGGACCGACAAUGGAGGGACCCUUAUGCGGUGUACGAAGUUUCAGCGUGUAGGGGUGGCUACACGCUGAAGCUUCGUGCAC
B5: hsa-mir-4466 (structured_RNA)
RNA: GGGAAUUGACGUGAUCAUACACGGUGCUGGUGUACGAAGUUUCAGCGGGGUAGAAGCCACCCGGCUGAAGCUUCGUGCAC
B6: hsa-mir-421 (structured_RNA)
RNA: GGGAAUGACUAGUCGCGUUAGAUGCGGGGGUGUACGAAGUUUCAGCGAAUGAAAAAAUGAAUCAUCGCUGAAGCUUCGUGCAC
B7: hsa-mir-1307 (structured_RNA)
RNA: GGGAAGUCUUGAUACUGUAACCCGGUGGGGUGUACGAAGUUUCAGCGGCUCGUCUGUGUUGCCAAUCGACUCGCUGAAGCUUCGUGCAC
B8: hsa-mir-552 (structured_RNA)
RNA: GGGAUUAGUAUCAUGAAAGACGAUGGCGGGUGUACGAAGUUUCAGCUGUUGGUUGAAGAUGCCUUUCAACAGCUGAAGCUUCGUGCAC
B9: hsa-mir-517c_517b (structured_RNA)
RNA: GGGAAAGGUCAAACGGUAUUCUCGUACCGGUGUACGAAGUUUCAGCCUGUCUGUUGUCUAAGAAAAGAUCGGCUGAAGCUUCGUGCAC
B10: hsa-mir-6846 (structured_RNA)
RNA: GGGACCCCACGAGAUGAUAUCGACGGCUGGUGUACGAAGUUUCAGCUAGAGUAGGAGAGCCCACUGAGCUGAAGCUUCGUGCAC
B11: hsa-mir-6742 (structured_RNA)
RNA: GGGCCAGUCGAACUAGAGCCAACCGGUCGGUGUACGAAGUUUCAGCAGCUGUUGGCCAUGGCGACAACACCUGCUGAAGCUUCGUGCAC
B12: PARIS_ID20 (structured_RNA)
RNA: GGGAAAGCAAUAACUGUGCCGAUGAGUCGGUGUACGAAGUUUCAGCUUUUCUAGUGAUGGCUUUGAGGUUAUUUGCAGUUUCCUAGCCAUCUCAAAGUGUGCUGCGGGGAGCUGAAGCUUCGUGCAC
B13: hsa-mir-106b (structured_RNA)
RNA: GGGACGCGCGGACGCAAUACAGAAAUAAGGUGUACGAAGUUUCAGCGCAGAUAGUGGUCCUCUCCGUGCUACCGCGCUGAAGCUUCGUGCAC
B14: hsa-mir-6818 (structured_RNA)
RNA: GGGACGUUUUAGUGCUAGACCGUGCUUCGGUGUACGAAGUUUCAGCAGCAUCUGAAUGGGUACAGUUGUUGUGCUGAAGCUUCGUGCAC
B15: hsa-mir-5096 (structured_RNA)
RNA: GGGAGGAAGCGAAAUAUCACAAACGGAAGGUGUACGAAGUUUCAGCAGGCUGGUCUCAAACUCCUGCUGAAGCUUCGUGCAC
B16: hsa-mir-6793 (structured_RNA)
RNA: GGGAGCUCAUCGGAAGUGAAUCCGUUAUGGUGUACGAAGUUUCAGCGGGUGAUACACAAGCCUGACCCUCCCGCUGAAGCUUCGUGCAC
B17: hsa-mir-514a-2_514a-3 (structured_RNA)
RNA: GGGACUCUAUGGCACCGAUAUGAUACCUGGUGUACGAAGUUUCAGCCAAUCAUGUAUAACUAAAUUUGAUUGGCUGAAGCUUCGUGCAC
B18: hsa-mir-3074 (structured_RNA)
RNA: GGGAAGUGUCCAUAUAUACCUGGAUAGGGGUGUACGAAGUUUCAGCGCCAGUGUGUAAAAUGAGAACUGAUAGCUGAAGCUUCGUGCAC
B19: hsa-mir-34b (structured_RNA)
RNA: GGGACGCUACUAGUGGUAUAUUGGACAAGGUGUACGAAGUUUCAGCAUUGUACUGUGGUGGUUACAAUGCUGAAGCUUCGUGCAC
B20: hsa-mir-526a-2 (structured_RNA)
RNA: GGGACGAAAAGCAUUGCGGCAAGAUAUAGGUGUACGAAGUUUCAGCCUGUUGAAAGAAAAGGCUGAAGCUUCGUGCAC
B21: hsa-mir-4703 (structured_RNA)
RNA: GGGAAUCUUCGAGCACGGCAGUUCAAACGGUGUACGAAGUUUCAGCUAUAGUGUGUUUGAUUUGCACUGUAGCUGAAGCUUCGUGCAC
B22: hsa-mir-4270 (structured_RNA)
RNA: GGGAAGCAGGGUCGUACACCAGUUAUUGGGUGUACGAAGUUUCAGCGGGCAGAAAUAGAUGGCCUGCUGAAGCUUCGUGCAC
B23: hsa-mir-3162 (structured_RNA)
RNA: GGGACAUAGAGUGAUUGGGCUAUACCGAGGUGUACGAAGUUUCAGCGGGAGCAUGAACAAUGUUUCUCACUCCCGCUGAAGCUUCGUGCAC
B24: hsa-mir-4321 (structured_RNA)
RNA: GGGACGAGCAAACUGAUGAGUUUGGCACGGUGUACGAAGUUUCAGCGAGACACCCGCUACCUGGUGUUGCUGAAGCUUCGUGCAC
B25: hsa-mir-3943 (structured_RNA)
RNA: GGGAAGAUCCGACGAGGGCUUCCCAAAUGGUGUACGAAGUUUCAGCGGCGUGGACAACUUGCUGCUGAAGCUUCGUGCAC
B26: hsa-mir-4427 (structured_RNA)
RNA: GGGACCUUUAGGACAAUUUGAACCAGGCGGUGUACGAAGUUUCAGCUAGACAAUGGUUUCAUCAUUUCGUCUGGCUGAAGCUUCGUGCAC

This is one part of the list.

The target in the first assay is T1, LIN28A (human?, UniProt Q9H9Z2 1-209).
T1 sequence: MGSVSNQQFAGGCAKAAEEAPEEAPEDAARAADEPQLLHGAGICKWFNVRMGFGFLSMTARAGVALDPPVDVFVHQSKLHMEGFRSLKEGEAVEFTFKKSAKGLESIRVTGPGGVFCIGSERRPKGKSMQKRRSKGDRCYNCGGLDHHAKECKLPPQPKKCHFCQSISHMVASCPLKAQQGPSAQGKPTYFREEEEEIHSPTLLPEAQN
The assay is described as follows: FOREST: bead pull-down of RNA structure library v1, barcode microarray; U1A/LIN28A: 20 mM HEPES pH 7.5, 80 mM KCl, 20 mM NaCl, 10% glycerol, 2 mM DTT, 0.1 ug/uL BSA, 4 C; BG4/CIRBP/DHX36: 10 mM Tris-HCl pH 7.5, 100 mM KCl (or LiCl),; high values mean tight binding.
With B1, the binding signal was 0.371 z-score.
The same measure, in the same setting: under B2 stands 0.329 z-score; under B3, 0.348 z-score.
Still for that read-out and setting: under B4 stands 0.336 z-score.
Still for that read-out and setting: under B5 stands 0.374 z-score; under B6, 0.359 z-score; under B7, 0.341 z-score.
B8 displayed a binding signal of 0.374 z-score.
Turning to B9, the binding signal stood at 0.357 z-score.
B10: the binding signal turned out to be 0.358 z-score.
Turning to B11, the binding signal was 0.358 z-score.
On the same count and under the same terms, under B12 stands 0.351 z-score.
On the same count and under the same terms, under B13 stands 0.377 z-score; under B14, 0.352 z-score; under B15, 0.339 z-score.
With B16, the binding signal was determined as 0.332 z-score.
The same measure, in the same setting: under B17 stands 0.359 z-score; under B18, 0.354 z-score; under B19, 0.332 z-score.
On the same count and under the same terms, next, B20: 0.351 z-score; B21: 0.344 z-score.
Still for that read-out and setting: next, B22: 0.38 z-score; B23: 0.383 z-score; B24: 0.327 z-score.
Molecule B25 registered a binding signal of 0.383 z-score.
Take B26: the binding signal turned out to be 0.377 z-score.

In another assay the target is T2, CIRBP (Homo sapiens, UniProt Q14011 1-172).
T2 sequence: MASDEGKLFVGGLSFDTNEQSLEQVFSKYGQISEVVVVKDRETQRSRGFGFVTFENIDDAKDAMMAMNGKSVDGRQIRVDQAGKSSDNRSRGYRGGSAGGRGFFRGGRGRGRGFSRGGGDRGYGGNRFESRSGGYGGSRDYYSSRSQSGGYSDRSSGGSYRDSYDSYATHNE
The description is as above.
In turn, B1 displayed a binding signal of 0.183 z-score.
On to B2, for which the binding signal stood at 0.518 z-score.
Still for that read-out and setting: under B3 stands 0.56 z-score.
Still for that read-out and setting: next, B4: -0.228 z-score; B5: 1.05 z-score.
On the same count and under the same terms, next, B6: 0.857 z-score.
Molecule B7 came in with a binding signal of 0.315 z-score.
On the same count and under the same terms, next, B8: 0.962 z-score; B9: 0.14 z-score.
Still for that read-out and setting: under B10 stands -0.327 z-score.
Still for that read-out and setting: under B11 stands -0.588 z-score.
B12: the binding signal is -1.08 z-score.
B13: the binding signal was 0.756 z-score.
Regarding B14, the binding signal was 0.42 z-score.
Still for that read-out and setting: next, B15: -1.41 z-score; B16: -1.17 z-score; B17: -0.106 z-score.
B18 returned a binding signal of 0.369 z-score.
Same read-out and setting: next, B19: -0.707 z-score; B20: 0.302 z-score.
Molecule B21 came in with a binding signal of 0.423 z-score.
The same measure, in the same setting: under B22 stands 0.0138 z-score.
The same measure, in the same setting: under B23 stands 1.46 z-score.
In turn, B24 registered a binding signal of -0.242 z-score.
Same read-out and setting: under B25 stands -0.592 z-score; under B26, 1.07 z-score.

In another assay the target is T3, DHX36 (Homo sapiens, UniProt Q9H2U1 1-1008).
T3 sequence: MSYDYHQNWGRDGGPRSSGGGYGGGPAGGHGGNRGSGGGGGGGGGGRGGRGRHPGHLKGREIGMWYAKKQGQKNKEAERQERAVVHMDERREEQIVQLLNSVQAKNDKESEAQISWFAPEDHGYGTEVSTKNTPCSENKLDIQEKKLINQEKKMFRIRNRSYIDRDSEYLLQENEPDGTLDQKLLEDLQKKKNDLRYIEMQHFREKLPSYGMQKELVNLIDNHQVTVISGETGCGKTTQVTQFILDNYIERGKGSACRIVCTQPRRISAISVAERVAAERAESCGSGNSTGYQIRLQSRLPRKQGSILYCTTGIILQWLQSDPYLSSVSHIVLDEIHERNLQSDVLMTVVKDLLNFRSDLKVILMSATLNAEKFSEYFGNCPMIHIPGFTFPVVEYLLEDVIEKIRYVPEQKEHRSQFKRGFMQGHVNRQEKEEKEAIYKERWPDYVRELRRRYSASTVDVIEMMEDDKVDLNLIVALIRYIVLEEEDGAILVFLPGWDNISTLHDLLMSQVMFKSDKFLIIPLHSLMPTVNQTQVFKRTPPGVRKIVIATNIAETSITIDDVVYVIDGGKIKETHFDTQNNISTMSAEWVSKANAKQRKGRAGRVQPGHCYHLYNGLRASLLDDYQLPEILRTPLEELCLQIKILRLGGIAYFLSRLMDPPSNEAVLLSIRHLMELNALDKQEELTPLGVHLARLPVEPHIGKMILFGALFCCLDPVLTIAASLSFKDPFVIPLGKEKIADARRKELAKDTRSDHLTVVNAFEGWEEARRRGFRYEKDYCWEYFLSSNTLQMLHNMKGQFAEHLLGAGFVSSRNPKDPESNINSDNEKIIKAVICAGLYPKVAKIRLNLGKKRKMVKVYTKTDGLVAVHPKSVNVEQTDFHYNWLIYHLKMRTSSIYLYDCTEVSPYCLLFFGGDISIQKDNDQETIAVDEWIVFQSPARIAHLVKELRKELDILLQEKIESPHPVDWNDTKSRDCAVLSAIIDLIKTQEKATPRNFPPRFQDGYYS
The description is as above.
Consider B1, for which the binding signal was determined as 0.32 z-score.
The molecule B2 yielded a binding signal of 0.0992 z-score.
On the same count and under the same terms, under B3 stands -0.122 z-score; under B4, 0.214 z-score.
The molecule B5 returned a binding signal of 1.04 z-score.
Molecule B6 had a binding signal of 0.216 z-score.
For the molecule B7, the binding signal was determined as 0.705 z-score.
In the case of B8, the binding signal is 1.26 z-score.
B9 showed a binding signal of -0.0295 z-score.
The molecule B10 gave a binding signal of -0.501 z-score.
Take B11: the binding signal stood at 0.489 z-score.
Still for that read-out and setting: under B12 stands -0.331 z-score.
Still for that read-out and setting: next, B13: -0.0714 z-score; B14: -0.437 z-score; B15: 1.73 z-score.
The same measure, in the same setting: under B16 stands -0.458 z-score; under B17, -1.16 z-score; under B18, -0.958 z-score.
Consider B19, for which the binding signal was -0.0441 z-score.
Molecule B20 had a binding signal of 1.51 z-score.
On the same count and under the same terms, under B21 stands -0.134 z-score.
On the same count and under the same terms, next, B22: -1.01 z-score; B23: 0.32 z-score; B24: -0.133 z-score.
Turning to B25, the binding signal is -0.373 z-score.
For B26, the binding signal was -0.346 z-score.

(Values after publication PMC7723054.)
